Screens: PubChem, Broad Institute
Sampled rows, rich in hits. Any-hit rate of the full collection: about 0.73%.
Xi reactivation: activators of inactive X chromosome reactivation, primary screen, imaging, XiGFP fibroblasts, GFP high-content imaging, set 2. XiGFP mouse fibroblasts, % GFP-positive cells imaging, 3 d; cells co-treated with 5-aza-dC sensitizer; scaled so ellipticine positive control = 100%. activation, % at 7.58 µM. 360,000 tested, 0.055% active;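 active = mean normalized replicate activation at least 10% and every replicate at or above 10%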;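 note: 0% = median of on-plate neutral control wells and 100% = ellipticine 6 µM median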
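Material: SV40-immortalized XiGFP fibroblast cells, line 68-5-11 | Buffer or medium: DMEM containing 5-aza-dC | Dosing: One concentration, pinned | Times: 3 d treatment, 15 min room-temperature fixation | Controls: Ellipticine 6 µM positive control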
E-selectin induc: E-selectin induction in HUVECs, primary screen, imaging, HUVEC, immunofluorescence imaging, single point. normalized: neutral wells 0, TNF-alpha wells 100. activation, % at 7.58 µM. 260,000 tested, 0.37% active. AID 686992, 2013;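 active = mean E-selectin-positive cell signal at least 10% of the positive control, reached in at least 60% of replicates, without over 20% cell loss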
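System: HUVEC, human umbilical vein endothelial cells; quantity: 3,000 cells/well; buffer or medium: EGM-2 medium, gelatin-coated wells; dosing: single-point compound dose; detection: immunofluorescence imaging; evaluation: % PE-positive cells; benchmarks: TNF-alpha, DMSO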
UUG fidelity: yeast start codon fidelity modulation; activity score, % at 18.7 µM; actives 0.13% (n = 350,000); S. cerevisiae UUG-firefly luciferase reporter, luminescence/redox ratio; AID 602363;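 active means replicate mean at a twofold rise or more, about +100% in these data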;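 further: firefly luciferase made from a UUG start codon reports start codon fidelity; reporter light over untreated wells divided by growth signal over untreated wells; some hits fall short of that in this replicate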
RAD52 anneal inh: RAD52 DNA annealing inhibitors, primary screen, biochemical, FRET, single point, set 2; DNA repair protein RAD52 homolog (Homo sapiens), P43351; recombinant RAD52 DNA annealing, FRET fluorescence; inhibition, % at 18.7 µM; 360,000 tested, 0.46% active; AID 651710, 2012;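 active = every replicate showing at least 50% inhibition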
RAD54 branch: inhibitors of human RAD54 branch migration, primary screen, biochemical, fluorescence, single point | DNA repair and recombination protein RAD54-like (Homo sapiens), Q92698 | RAD54 Holliday junction branch migration, FAM/BHQ fluorescence | inhibition, % at 10.4 µM | 360,000 tested, 0.14% active | AID 602329, 2012;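 active = mean normalized replicate activity at least 40 and at least half of replicates scoring 40 or more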;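 note: 0% = median of neutral control wells and 100% = median of positive control wells; inhibitors cause a drop in the FAM fluorescence signal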
* = called active by the depositor; · = not tested or not shown; ! = a repeat was not active.

The chains behind the UniProt entries cited, without tags or fusion partners.
DNA repair protein RAD52 homolog (Homo sapiens), P43351, UniProt P43351, whole entry, looked up: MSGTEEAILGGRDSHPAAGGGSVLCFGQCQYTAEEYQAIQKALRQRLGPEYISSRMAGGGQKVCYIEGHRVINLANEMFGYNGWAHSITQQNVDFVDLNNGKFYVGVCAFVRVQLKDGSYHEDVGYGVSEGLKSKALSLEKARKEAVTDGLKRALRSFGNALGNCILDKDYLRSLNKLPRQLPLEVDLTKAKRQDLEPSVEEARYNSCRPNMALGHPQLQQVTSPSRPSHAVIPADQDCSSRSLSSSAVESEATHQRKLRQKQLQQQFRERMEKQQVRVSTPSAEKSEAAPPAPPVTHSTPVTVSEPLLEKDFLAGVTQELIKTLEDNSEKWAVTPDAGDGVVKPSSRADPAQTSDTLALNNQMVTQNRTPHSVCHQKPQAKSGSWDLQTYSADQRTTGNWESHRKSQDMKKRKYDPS
DNA repair and recombination protein RAD54-like (Homo sapiens), Q92698, UniProt Q92698, whole entry, looked up: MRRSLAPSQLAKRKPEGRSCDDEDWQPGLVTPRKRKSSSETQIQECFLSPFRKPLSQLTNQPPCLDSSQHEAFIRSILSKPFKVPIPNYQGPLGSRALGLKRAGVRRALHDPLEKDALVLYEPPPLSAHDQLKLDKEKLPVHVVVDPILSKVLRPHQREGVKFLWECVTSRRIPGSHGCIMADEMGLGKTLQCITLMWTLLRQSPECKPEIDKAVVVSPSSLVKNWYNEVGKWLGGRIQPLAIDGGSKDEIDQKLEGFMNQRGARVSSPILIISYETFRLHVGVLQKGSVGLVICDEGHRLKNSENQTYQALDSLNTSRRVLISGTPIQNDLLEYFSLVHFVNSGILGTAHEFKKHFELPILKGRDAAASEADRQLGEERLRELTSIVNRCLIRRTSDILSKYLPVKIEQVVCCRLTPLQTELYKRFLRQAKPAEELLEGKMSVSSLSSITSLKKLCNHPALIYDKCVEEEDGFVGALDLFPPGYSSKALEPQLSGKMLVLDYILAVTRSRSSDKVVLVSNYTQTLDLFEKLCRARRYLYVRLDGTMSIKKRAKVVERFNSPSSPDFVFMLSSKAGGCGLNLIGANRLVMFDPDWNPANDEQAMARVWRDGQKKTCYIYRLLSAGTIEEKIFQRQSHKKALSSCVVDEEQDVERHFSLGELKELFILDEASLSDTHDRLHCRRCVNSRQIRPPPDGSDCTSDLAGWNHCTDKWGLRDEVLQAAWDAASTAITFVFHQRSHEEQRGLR

SMILES	Xi reactivation	E-selectin induc	UUG fidelity	RAD52 anneal inh	RAD54 branch
CCCNC(=O)N(C)C[C@H]1Oc2cc(C#CCN(C)C)ccc2S(=O)(=O)N([C@@H](C)CO)C[C@@H]1C	-1	1	5	-10	0
CO[C@@H]1CN(C)C(=O)c2ccc(NC(=O)C3CC3)cc2OC[C@@H](C)N(C(=O)C2CCCCC2)C[C@H]1C	0	0	·	-16	·
COc1ccc(NC(=O)N2CCCCN3[C@@H](CO)[C@@H](c4ccc(C5=CCCC5)cc4)[C@@H]3C2)cc1	·	·	6	54*	-13
CCn1c(Cl)c(C=O)s/c1=N\S(=O)(=O)c1ccccc1	35*	·	-4	-104	-12
CCN1C(=O)CS/C1=N\S(=O)(=O)c1ccc(Cl)cc1	0	1	-10	-16	-7
C[C@H](CO)N1C[C@H](C)[C@H](CN(C)C(=O)Nc2ccc3c(c2)OCO3)Oc2c(NC(=O)Nc3ccc(C(F)(F)F)cc3)cccc2C1=O	-1	0	19	·	3
C[C@@H]1CN([C@H](C)CO)C(=O)c2cc(NC(=O)Nc3ccccc3)ccc2O[C@@H]1CN(C)C(=O)Nc1ccc(C(F)(F)F)cc1	2	0	-4	-1	-7
C[C@@H]1CN([C@H](C)CO)C(=O)c2cccc(NC(=O)Nc3ccc4c(c3)OCO4)c2O[C@H]1CN(C)C(=O)Nc1ccc(C(F)(F)F)cc1	0	38*	12	8	3
C[C@@H]1CN([C@@H](C)CO)C(=O)c2cc(NC(=O)Nc3ccccc3)ccc2O[C@@H]1CN(C)C(=O)Nc1ccc(C(F)(F)F)cc1	0	51*	-3	6	4
C[C@H]1CN([C@@H](C)CO)C(=O)c2cc(NC(=O)Nc3ccccc3)ccc2O[C@@H]1CN(C)C(=O)Nc1ccc(C(F)(F)F)cc1	0	40*	9	11	-3
C[C@H]1CN([C@@H](C)CO)C(=O)c2cccc(NC(=O)c3ccncc3)c2O[C@H]1CN(C)Cc1ccc(Oc2ccccc2)cc1	·	·	-3	-10	-1
Cc1ccc(OCc2nc(-c3cccnc3)no2)cc1C	0	424*	1	-15	-8
COc1ccccc1CSc1nc2c(c(=O)n(C)c(=O)n2C)n1C	0	48*	-5	-14	-1
C[C@@H]1CN([C@@H](C)CO)C(=O)c2cc(NC(=O)Nc3ccc(F)cc3)ccc2O[C@@H]1CN(C)S(=O)(=O)c1cccs1	0	161*	·	25	-23
C[C@@H]1CN([C@H](C)CO)C(=O)c2cc(NC(=O)Nc3ccc4c(c3)OCO4)ccc2O[C@H]1CN(C)S(=O)(=O)c1ccccc1	0	34*	6	-7	1
C[C@@H]1CN([C@@H](C)CO)C(=O)c2cc(NC(=O)Nc3ccc4c(c3)OCO4)ccc2O[C@@H]1CN(C)S(=O)(=O)c1ccccc1	0	-3	-4	-5	1
C[C@H]1CN([C@@H](C)CO)C(=O)c2cc(NC(=O)Nc3ccc4c(c3)OCO4)ccc2O[C@@H]1CN(C)S(=O)(=O)c1ccc(F)cc1	0	50*	-8	10	-9
COc1ccc(S(=O)(=O)N(C)C[C@H]2Oc3ccc(NC(=O)Nc4ccc5c(c4)OCO5)cc3CC(=O)N([C@H](C)CO)C[C@@H]2C)cc1	0	429*	-13	-4	6
COc1ccc(S(=O)(=O)N(C)C[C@@H]2Oc3ccc(NC(=O)Nc4ccc5c(c4)OCO5)cc3CC(=O)N([C@H](C)CO)C[C@H]2C)cc1	0	14	-4	-9	-6
CC(=O)N[C@H]1C=C[C@@H](CC(=O)NCc2ccc(Cl)cc2)O[C@@H]1CO	0	0	-8	-5	5

Complete entries from above. Order of values: Xi reactivation | E-selectin induc | UUG fidelity | RAD52 anneal inh | RAD54 branch
`C[C@@H]1CN([C@H](C)CO)C(=O)c2cc(NC(=O)Nc3ccc4c(c3)OCO4)ccc2O[C@H]1CN(C)S(=O)(=O)c1ccccc1` is listed as 0 | 34* | 6 | -7 | 1
`COc1ccccc1CSc1nc2c(c(=O)n(C)c(=O)n2C)n1C` is listed as 0 | 48* | -5 | -14 | -1
`CCn1c(Cl)c(C=O)s/c1=N\S(=O)(=O)c1ccccc1` is listed as 35* | · | -4 | -104 | -12
`C[C@H]1CN([C@@H](C)CO)C(=O)c2cc(NC(=O)Nc3ccccc3)ccc2O[C@@H]1CN(C)C(=O)Nc1ccc(C(F)(F)F)cc1` is listed as 0 | 40* | 9 | 11 | -3

More entries follow:
SMILES	Xi reactivation	E-selectin induc	UUG fidelity	RAD52 anneal inh	RAD54 branch
COc1ccc(NC(=O)Nc2ccc3c(c2)C(=O)N([C@@H](C)CO)C[C@H](C)[C@@H](CN(C)S(=O)(=O)c2c(C)noc2C)OCCCC[C@H](C)O3)cc1	0	0	9	·	6
C[C@@H]1CN([C@H](C)CO)C(=O)c2cc(NC(=O)Cn3cnnn3)ccc2O[C@H]1CN(C)Cc1ccc(Cl)c(Cl)c1	0	·	-5	-34	-1
C[C@@H]1CN([C@@H](C)CO)C(=O)Cc2cc(NC(=O)Nc3ccc4c(c3)OCO4)ccc2O[C@H]1CN(C)CC1CC1	-1	0	5	26	2
CO[C@@H]1CN(C)C(=O)c2cc(NS(=O)(=O)c3ccccc3)ccc2OC[C@H](C)N(Cc2ccccn2)C[C@@H]1C	0	0	-24	4	-15
C[C@@H]1CN([C@@H](C)CO)C(=O)c2cccc(NC(=O)Nc3ccc4c(c3)OCO4)c2O[C@H]1CN(C)S(=O)(=O)c1ccc(F)cc1	0	55*	2	-4	-7
C[C@H](CO)N1C[C@H](C)[C@@H](CN(C)S(=O)(=O)c2ccc(F)cc2)Oc2c(NC(=O)Nc3ccc4c(c3)OCO4)cccc2C1=O	0	0	4	-14	-1
COc1ccc(NC(=O)Nc2ccc3c(c2)C(=O)N([C@H](C)CO)C[C@@H](C)[C@@H](CN(C)S(=O)(=O)c2ccc(F)cc2)O3)cc1	0	40*	4	·	2
COc1ccc(S(=O)(=O)N(C)C[C@@H]2Oc3ccc(NC(=O)Nc4ccc5c(c4)OCO5)cc3C(=O)N([C@@H](C)CO)C[C@H]2C)cc1	-1	-3	-17	-5	57*
COc1ccc(S(=O)(=O)N(C)C[C@@H]2Oc3ccc(NC(=O)Nc4ccc5c(c4)OCO5)cc3C(=O)N([C@@H](C)CO)C[C@@H]2C)cc1	-1	-2	-4	-7	2
Cc1cccc(-c2ccc(C3[C@@H]4CN(C(=O)Nc5ccc(F)cc5)C[C@H]3N4)cc2)c1 (stereo partly specified)	0	0	·	60*!	·
O=C(Nc1cccc(F)c1)N1C[C@@H]2N[C@H](C1)C2c1ccc(-c2ccc(F)cc2)cc1 (stereo partly specified)	0	0	·	51*	·
Cc1cccc(-c2ccc(C3[C@@H]4CN(C(=O)Nc5ccccc5)C[C@H]3N4)cc2)c1 (stereo partly specified)	0	0	·	·	·
O=C(c1ccc(F)cc1)N1C[C@@H]2N[C@H](C1)C2c1ccc(-c2ccccc2F)cc1 (stereo partly specified)	0	0	·	·	·
O=C(Nc1cccc(F)c1)N1C[C@@H]2N[C@H](C1)C2c1ccc(-c2cncnc2)cc1 (stereo partly specified)	0	0	·	·	·
O=C(Nc1ccc(F)cc1)N1C[C@@H]2N[C@H](C1)C2c1ccc(-c2ccccc2F)cc1 (stereo partly specified)	0	0	·	55*!	·
